Experimental data reported in patent publication US20240190874A1, “SMALL MOLECULE DEGRADERS OF ANDROGEN RECEPTOR” (THE REGENTS OF THE UNIVERSITY OF MICHIGAN, priority 2021, published 2024).

Sequences of proteins named here, by UniProt entry; tags and fusion partners are left off.
UniProt P10275, whole entry: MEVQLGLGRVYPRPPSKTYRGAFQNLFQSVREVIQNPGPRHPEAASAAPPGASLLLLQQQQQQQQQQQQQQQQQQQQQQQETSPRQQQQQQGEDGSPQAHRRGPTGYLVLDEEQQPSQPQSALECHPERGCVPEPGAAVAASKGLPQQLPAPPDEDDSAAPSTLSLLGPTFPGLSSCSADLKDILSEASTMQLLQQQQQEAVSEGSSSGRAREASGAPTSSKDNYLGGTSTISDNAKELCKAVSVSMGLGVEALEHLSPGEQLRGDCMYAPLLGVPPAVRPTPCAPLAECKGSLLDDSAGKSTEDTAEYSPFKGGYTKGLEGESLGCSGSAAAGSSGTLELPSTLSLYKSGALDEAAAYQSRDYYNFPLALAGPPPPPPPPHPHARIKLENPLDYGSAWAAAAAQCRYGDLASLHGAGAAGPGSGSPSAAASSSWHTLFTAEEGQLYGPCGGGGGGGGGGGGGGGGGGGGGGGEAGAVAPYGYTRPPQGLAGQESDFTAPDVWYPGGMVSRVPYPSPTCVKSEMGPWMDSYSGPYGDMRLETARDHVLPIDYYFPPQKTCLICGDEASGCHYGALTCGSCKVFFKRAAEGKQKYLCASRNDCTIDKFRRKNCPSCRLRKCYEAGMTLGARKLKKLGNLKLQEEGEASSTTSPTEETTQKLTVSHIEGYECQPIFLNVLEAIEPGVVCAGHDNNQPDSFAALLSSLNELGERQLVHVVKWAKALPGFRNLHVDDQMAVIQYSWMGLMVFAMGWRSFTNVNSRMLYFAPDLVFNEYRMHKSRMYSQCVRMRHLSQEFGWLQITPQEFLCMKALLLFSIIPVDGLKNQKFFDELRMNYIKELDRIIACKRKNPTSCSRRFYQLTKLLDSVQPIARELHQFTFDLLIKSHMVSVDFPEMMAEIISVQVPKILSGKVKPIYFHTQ

Biological target: AR (Homo sapiens, UniProt P10275)
Test: Degradation of AR in VCaP cells
Experimental: Biological Assays. LNCaP and VCaP cells used were purchased from American Type Culture Collection (ATCC). LNCaP were grown in RPMI 1640 (Invitrogen) and VCaP cells were grown in DMEM with Glutamax (Invitrogen). All of the cells were supplemented with 10% fetal bovine serum (Invitrogen) at 37° C. in a humidified 5% CO2 incubator.

For `C[C@H]1CC2(CCN(c3ccc(C4CCN(CC(=O)N5Cc6cc7c(cc6C5)C(=O)N(C5CCC(=O)NC5=O)C7=O)CC4)cc3)CC2)CN1c1ccc(C#N)c(Cl)c1` (some centres unmarked), the “Degradation of AR in VCaP cells Dmax” value was “A (A = >90%)” and the DC50 (read-out: Degradation of AR in VCaP cells DC50) was less than 100 nM.
